Test results published in US8207309B2, “Human synthetic single-chain antibodies directed against the common epitope of mutant P53 and their uses” (Ramot at Tel-Aviv University Ltd., priority 2005, dated 2012).

System: H1299-R175H cells
Test: Susceptibility to chemotherapy drugs of cells stably expressing scFv F2
Type: cell-based, human
Conditions: FIG. 5

B1: A4 scFv: human scFv clone; VL CDRs SEQ ID NOs:36-38 (protein)
scFv: VQLLESGGGLVQPGGSLRLSCAASGFTFSGYWMHWVRQAPGKGLEWVSEISGSGDSTHYGDSVKGRFTISRDNSKNTLYLQMNSLRAEDTAVYYCARGRNGSLDYWGQGTLVTVSSGSAGGGGSGGGGSGGGGSDIVLTQPPSASGTPGQRVTISCTGNSSNIGAGYDVHWYQQLPGKAPKLLIYSNNQRPSGVPDRFSGSKSGTSASLAISGLRSEDEADYYCAAWDDSLSSVVFGGGTKLTV
susceptibility of cancer cells to chemotherapy drugs: capable of increasing the susceptibility of cancer cells to chemotherapy drugs
